Laboratory results published in ChEMBL document CHEMBL4808148, “HDAC6 screening dataset using tau-based substrate in an enzymatic assay yields selective inhibitors and activators” (2021).
This is a selection; strong and weak results do not stand in their true shares.

target: T1, Protein deacetylase HDAC6 (Homo sapiens) (UniProt Q9UBN7); details: at 10 µM
T1 sequence (whole entry): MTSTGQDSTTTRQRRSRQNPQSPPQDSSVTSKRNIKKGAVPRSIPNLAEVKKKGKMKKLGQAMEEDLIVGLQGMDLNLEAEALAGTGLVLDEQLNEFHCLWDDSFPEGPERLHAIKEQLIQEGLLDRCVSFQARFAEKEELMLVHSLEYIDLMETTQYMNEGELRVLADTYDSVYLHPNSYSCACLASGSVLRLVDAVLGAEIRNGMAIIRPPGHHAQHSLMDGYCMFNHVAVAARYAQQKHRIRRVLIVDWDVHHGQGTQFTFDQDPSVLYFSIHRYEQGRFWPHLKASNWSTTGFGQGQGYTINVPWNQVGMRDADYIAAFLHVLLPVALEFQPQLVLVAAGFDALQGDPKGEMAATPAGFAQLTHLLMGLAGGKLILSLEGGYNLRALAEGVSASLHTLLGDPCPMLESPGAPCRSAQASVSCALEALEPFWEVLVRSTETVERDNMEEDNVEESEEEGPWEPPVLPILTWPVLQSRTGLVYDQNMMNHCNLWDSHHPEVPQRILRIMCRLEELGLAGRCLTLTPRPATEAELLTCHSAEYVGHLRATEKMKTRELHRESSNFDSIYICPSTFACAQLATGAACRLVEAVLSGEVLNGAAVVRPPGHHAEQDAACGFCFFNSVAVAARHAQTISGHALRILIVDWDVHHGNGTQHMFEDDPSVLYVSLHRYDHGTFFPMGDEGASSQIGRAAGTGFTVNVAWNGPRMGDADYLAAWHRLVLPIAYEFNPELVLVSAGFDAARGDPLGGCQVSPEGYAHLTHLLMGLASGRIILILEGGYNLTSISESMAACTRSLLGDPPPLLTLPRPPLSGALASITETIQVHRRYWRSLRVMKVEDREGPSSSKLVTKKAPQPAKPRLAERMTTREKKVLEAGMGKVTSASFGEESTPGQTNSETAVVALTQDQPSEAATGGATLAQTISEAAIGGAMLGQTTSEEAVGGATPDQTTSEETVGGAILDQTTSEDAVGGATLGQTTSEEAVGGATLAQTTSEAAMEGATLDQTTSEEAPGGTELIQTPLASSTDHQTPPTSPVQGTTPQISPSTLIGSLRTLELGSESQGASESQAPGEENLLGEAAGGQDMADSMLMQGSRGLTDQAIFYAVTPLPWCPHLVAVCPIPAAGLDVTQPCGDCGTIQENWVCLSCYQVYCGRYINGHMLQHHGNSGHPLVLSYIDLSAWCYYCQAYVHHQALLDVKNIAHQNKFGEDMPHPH

Question: For CN(C(=O)Cc1ccc(Cl)c(Cl)c1)C1CCC2(CCCO2)CC1N1CCCC1 (stereo unspecified), which inhibition is on record?
Answer: The inhibition was -5.69%.

Question: Which inhibition does the source give for O=C(OC1CN2CCC1CC2)c1ccccc1 (stereo unspecified) here?
Answer: Its inhibition is -1.86%.

Question: With N[C@@H](Cc1ccc([N+]([O-])(CCCl)CCCl)cc1)C(=O)O as the molecule, how does the inhibition read?
Answer: The inhibition was -6.73%.

Question: How did the inhibition turn out when CN(C)[C@]1(c2ccccc2)CC[C@]2(CC1)OCCc1c3cc(F)ccc3[nH]c12 was run?
Answer: The inhibition was 0%.

Question: Which inhibition does the source give for CN(C(=O)Cc1ccc(Cl)c(Cl)c1)[C@H]1CCCC[C@@H]1N1CCCC1 here?
Answer: The inhibition was -2.05%.

Question: How did the inhibition turn out when O=P(O)(O)F was run?
Answer: The inhibition was -6.79%.
